# Laboratory results taken from patent publication US20150099800A1, “NOVEL LIPASE INHIBITORS, REPORTER SUBSTRATES AND USES THEREOF” (Northeastern University, priority 2012, published 2015).
# Protein sequences, listed by entry. Tags and fused reporters are not part of them. Residues count along the entry.
# UniProt P97612, 30-579 limits assumed: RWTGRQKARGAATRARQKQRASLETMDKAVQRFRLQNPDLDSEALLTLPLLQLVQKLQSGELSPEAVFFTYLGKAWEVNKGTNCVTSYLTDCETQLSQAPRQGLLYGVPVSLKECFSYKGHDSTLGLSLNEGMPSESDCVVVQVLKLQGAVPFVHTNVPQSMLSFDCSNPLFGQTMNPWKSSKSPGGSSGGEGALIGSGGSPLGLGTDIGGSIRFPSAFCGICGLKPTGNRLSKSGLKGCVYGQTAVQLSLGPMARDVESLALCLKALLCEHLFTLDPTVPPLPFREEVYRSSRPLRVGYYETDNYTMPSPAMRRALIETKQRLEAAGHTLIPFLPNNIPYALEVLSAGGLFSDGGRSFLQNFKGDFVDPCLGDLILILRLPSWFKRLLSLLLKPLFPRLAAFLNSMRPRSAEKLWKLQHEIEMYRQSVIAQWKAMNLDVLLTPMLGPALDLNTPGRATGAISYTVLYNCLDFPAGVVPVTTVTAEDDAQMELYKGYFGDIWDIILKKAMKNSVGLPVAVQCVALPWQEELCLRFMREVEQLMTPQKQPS
# UniProt Q99685, whole entry: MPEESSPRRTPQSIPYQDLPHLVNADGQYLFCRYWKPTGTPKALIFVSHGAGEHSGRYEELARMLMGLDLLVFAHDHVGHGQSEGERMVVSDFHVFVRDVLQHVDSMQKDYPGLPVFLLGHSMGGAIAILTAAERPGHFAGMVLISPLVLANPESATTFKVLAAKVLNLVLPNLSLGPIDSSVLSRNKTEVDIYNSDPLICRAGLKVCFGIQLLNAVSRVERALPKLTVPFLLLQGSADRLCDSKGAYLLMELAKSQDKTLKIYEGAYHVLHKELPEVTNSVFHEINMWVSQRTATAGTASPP
# What was measured:
# [1] = target: T1, mDAGLα (Mus musculus, UniProt Q6WQJ1); test: Radio-TLC assay with [14C]SAG substrate, mDAGLα
# T1 sequence (Q6WQJ1 1-1044): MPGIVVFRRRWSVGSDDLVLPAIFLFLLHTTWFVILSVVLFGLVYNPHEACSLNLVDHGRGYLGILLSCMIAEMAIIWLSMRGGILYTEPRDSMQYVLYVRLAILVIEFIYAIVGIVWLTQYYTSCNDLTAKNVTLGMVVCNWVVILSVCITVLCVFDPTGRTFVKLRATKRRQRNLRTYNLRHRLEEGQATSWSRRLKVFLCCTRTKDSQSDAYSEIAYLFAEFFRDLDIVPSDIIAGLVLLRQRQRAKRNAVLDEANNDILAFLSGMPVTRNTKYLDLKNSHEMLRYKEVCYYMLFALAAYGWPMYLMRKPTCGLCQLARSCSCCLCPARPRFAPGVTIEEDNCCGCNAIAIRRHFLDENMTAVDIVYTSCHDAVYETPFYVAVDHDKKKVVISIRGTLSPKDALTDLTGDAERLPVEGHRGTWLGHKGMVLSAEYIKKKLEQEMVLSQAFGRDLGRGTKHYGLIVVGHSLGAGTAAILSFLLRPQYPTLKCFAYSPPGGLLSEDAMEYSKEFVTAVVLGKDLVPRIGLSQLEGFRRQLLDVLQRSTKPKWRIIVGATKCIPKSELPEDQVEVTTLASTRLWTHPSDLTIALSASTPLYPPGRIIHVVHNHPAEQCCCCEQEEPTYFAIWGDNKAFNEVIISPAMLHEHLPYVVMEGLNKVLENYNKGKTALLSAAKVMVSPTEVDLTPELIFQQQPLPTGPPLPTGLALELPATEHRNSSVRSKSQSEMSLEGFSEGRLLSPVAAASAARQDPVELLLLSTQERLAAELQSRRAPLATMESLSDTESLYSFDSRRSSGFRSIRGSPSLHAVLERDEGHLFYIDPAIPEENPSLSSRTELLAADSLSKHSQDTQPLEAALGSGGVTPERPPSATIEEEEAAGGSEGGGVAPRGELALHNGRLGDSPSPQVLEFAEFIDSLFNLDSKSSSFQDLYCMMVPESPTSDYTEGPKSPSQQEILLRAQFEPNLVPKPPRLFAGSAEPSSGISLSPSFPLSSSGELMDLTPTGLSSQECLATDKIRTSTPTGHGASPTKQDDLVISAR
# [2] = target: T2, hDAGLα (Homo sapiens, UniProt Q9Y4D2)
# T2 sequence (Q9Y4D2 1-1042): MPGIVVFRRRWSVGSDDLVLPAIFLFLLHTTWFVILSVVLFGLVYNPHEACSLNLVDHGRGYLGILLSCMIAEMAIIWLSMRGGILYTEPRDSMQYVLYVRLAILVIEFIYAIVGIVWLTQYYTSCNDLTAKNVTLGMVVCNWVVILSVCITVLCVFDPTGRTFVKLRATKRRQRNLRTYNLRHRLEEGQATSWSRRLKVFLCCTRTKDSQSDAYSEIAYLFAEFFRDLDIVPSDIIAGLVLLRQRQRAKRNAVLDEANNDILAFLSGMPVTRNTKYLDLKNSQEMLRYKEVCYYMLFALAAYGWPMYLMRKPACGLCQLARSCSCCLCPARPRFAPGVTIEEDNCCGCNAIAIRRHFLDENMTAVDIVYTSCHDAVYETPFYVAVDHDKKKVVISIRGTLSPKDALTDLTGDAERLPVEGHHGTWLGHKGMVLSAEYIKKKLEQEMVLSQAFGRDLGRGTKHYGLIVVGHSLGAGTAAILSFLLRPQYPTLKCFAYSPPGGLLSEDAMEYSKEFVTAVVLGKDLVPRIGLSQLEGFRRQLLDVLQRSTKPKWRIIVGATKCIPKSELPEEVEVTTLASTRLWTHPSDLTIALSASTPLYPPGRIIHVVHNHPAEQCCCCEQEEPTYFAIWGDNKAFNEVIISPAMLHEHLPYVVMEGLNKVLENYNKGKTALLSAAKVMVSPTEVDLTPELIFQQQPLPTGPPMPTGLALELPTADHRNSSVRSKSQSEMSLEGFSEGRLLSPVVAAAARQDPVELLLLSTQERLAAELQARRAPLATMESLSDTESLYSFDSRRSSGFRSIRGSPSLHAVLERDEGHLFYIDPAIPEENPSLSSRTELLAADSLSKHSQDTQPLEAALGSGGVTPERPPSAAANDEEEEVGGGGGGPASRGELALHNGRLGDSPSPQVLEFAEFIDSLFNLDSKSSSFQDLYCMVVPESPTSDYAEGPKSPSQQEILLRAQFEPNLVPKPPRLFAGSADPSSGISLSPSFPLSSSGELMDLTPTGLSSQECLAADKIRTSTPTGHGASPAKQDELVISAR
# [3] = target: T3, Pancreatic Lipase (Porcine) (Sus scrofa, UniProt P00591); type: biochemical
# T3 construct: purchased Sigma L3126
# T3 sequence (P00591 1-450): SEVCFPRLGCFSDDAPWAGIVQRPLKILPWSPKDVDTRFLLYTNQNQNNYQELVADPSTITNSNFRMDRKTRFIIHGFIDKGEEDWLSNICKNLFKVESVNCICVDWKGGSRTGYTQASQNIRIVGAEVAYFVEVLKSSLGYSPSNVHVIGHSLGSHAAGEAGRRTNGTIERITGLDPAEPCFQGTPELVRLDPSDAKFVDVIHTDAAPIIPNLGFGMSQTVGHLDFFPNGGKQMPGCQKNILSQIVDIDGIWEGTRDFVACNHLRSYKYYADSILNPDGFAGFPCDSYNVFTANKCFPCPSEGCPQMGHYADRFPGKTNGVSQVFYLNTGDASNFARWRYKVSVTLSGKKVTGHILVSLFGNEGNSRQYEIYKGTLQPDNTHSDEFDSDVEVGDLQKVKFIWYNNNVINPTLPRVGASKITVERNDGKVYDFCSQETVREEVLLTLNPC
# [4] = target: T2, hDAGLα; remark: listed apart in the source
# [5] = target: T4, rFAAH (Rattus norvegicus, UniProt P97612); test: rFAAH coumarin substrate fluorescence assay; type: biochemical
# T4 construct: His (N); made in house; host or cells: E. coli (cell line provided by the Cravatt group)
# [6] = target: MAGL (Homo sapiens, UniProt Q99685); test: hMAGL coumarin substrate fluorescence assay; type: biochemical; set-up: The N-terminal his-tagged full length human monoacylglycerol lipase used; His (N); made in house; host or cells: E. coli
Compound,mDAGLα inhibition at 1000 nM (%) ([1]; 1000 nM),mDAGLα inhibition at 10000 nM (%) ([1]; 10000 nM),"hDAGLα inhibition at 10 μM detergent free (%), FRET [2]","hDAGLα inhibition at 10 μM detergent free (%), FRET, marker ° [2]",Pancreatic Lipase (Porcine) inhibition at 10 μM (%) [3],hDAGLα inhibition at 10 μM TLC detergent free (%) [4],rFAAH inhibition at 10 μM (%) [5],hMAGL inhibition at 10 μM (%) [6]
"CCCCCCCCCCCCCCCCS(=O)(=O)F [n-C16H33SO2F, Palmitylsulfonyl fluoride]",18%,64%,"40, 94° %","40, 94° %",29%,,,
"O=S(=O)(F)Cc1ccccc1 [PMSF, phenylmethylsulfonylfluoride]",,,,8° %,17%,19%,100^E %,5%
